Biological target: human mu opioid receptor (Homo sapiens, UniProt P35372)
Conditions: [3H]-Diprenorphine 0.5 nM, CHO-K1 membranes; tested form: TFA salt (by the procedure of Example 22)

Sequences of proteins named here, by UniProt entry; tags and fusion partners are left off.
UniProt P35372, whole entry: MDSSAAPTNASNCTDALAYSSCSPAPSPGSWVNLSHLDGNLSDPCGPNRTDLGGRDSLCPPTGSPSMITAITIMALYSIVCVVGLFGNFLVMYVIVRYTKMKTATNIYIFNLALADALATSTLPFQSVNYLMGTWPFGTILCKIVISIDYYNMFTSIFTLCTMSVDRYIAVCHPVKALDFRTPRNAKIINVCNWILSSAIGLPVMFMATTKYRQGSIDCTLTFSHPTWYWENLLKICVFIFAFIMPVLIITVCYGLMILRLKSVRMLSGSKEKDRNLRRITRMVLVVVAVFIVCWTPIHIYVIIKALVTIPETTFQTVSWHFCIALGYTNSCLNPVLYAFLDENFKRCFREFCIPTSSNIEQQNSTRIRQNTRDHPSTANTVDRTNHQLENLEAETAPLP

Q: How did the “pKi value at the human mu opioid receptor” value turn out when `CCC1(CC)c2cc(C(N)=O)ccc2CC(OC)C1NCCCCCCC(N)=O` (stereo not shown) was run?
A: 9.1

Reference: patent US8497287B2, “Aminotetralin compounds as mu opioid receptor antagonists” (priority 2007, dated 2013)
